Molecules are shown by their SMILES. Some results are limits rather than exact numbers.

Sequences of proteins named here, by UniProt entry; tags and fusion partners are left off. Residues count along the entry.
UniProt P00533, 25-1210 T790M/C797S/L858R limits assumed: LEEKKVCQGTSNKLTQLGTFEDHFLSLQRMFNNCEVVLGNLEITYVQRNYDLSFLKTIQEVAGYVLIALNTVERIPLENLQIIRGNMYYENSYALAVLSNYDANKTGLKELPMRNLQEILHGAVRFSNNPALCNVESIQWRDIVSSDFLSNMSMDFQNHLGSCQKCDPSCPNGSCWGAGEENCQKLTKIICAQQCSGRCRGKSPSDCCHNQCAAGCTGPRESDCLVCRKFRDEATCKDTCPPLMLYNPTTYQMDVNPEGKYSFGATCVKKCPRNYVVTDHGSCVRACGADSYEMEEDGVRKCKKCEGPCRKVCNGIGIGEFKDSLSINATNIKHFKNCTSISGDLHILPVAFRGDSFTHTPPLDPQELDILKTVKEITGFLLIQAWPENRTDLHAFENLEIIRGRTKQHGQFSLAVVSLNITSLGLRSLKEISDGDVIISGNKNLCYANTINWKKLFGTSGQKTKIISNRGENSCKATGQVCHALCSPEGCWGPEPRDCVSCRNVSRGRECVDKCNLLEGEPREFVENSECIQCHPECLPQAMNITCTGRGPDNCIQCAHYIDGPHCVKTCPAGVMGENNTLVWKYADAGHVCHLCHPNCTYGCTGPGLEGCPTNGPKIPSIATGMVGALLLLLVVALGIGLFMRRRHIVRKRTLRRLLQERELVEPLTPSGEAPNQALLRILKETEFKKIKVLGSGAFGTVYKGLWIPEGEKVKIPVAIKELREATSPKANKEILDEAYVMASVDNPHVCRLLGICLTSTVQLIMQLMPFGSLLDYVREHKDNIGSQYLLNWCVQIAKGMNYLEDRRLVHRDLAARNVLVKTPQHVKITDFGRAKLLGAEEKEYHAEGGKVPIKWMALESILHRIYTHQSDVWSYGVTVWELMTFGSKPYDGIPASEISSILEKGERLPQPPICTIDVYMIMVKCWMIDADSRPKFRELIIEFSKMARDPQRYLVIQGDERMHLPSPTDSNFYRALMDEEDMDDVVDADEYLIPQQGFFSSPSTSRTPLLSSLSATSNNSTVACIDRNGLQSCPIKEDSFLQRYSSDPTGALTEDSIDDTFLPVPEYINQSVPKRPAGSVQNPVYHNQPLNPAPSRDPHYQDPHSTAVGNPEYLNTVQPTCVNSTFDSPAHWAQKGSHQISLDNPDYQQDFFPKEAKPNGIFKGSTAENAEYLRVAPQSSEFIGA
UniProt P00533, 25-1210 limits assumed: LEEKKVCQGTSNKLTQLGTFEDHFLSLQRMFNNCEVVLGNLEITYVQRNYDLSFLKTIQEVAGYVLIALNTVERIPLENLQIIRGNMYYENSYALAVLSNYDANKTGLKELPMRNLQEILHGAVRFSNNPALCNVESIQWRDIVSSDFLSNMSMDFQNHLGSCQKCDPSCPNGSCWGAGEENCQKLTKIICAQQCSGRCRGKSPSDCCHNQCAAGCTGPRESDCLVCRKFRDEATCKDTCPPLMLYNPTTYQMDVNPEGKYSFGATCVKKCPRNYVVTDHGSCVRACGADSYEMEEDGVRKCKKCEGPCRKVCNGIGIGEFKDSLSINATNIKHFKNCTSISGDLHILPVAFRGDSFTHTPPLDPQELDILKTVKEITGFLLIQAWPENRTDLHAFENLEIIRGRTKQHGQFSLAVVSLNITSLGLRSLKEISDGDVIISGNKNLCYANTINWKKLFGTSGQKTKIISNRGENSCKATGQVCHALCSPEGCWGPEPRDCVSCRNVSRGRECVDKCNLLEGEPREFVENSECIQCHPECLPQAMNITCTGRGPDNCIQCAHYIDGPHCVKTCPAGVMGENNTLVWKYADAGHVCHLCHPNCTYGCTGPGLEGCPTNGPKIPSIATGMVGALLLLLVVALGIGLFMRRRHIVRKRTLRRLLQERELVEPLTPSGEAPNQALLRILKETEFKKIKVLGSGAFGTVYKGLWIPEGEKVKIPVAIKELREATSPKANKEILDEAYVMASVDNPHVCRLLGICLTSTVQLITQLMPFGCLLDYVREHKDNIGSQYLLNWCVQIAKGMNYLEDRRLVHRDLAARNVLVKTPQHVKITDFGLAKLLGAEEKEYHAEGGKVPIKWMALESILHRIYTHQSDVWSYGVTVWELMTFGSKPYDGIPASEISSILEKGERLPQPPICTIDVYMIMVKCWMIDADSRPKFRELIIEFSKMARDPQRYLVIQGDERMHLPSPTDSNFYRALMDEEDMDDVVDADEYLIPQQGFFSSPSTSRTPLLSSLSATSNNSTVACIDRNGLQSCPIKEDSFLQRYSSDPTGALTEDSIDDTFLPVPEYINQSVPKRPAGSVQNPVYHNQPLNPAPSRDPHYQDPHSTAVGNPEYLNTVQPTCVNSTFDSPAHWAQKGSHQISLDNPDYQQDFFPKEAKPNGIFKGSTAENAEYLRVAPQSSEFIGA

In BindingDB's records for US20240034743 (Qilu Pharmaceutical, 2024) one finds IC50 data, which are given here for 1 compound.

Test [1] has as its target Epidermal growth factor receptor [L858R,T790M,C797S] (Homo sapiens, UniProt P00533, T790M/C797S/L858R). As to the kind of experiment: Not found.
Source text: Not found

The target in test [2] is Epidermal growth factor receptor (Homo sapiens, UniProt P00533). As to the kind of experiment: Not found.
Source text: Not found

As to `COc1nc2c(cc1Nc1ncc(Br)c(Nc3cccnc3NP(C)(C)=O)n1)-c1cnn(C)c1CCN2C(C)C`, the IC50 in test [1] was under 1 nM; in test [2], 5.5 nM.

By IC50 is commonly meant the midpoint of a concentration-inhibition curve. A high value points to weaker potency in that assay.
